# Data: ChEMBL document CHEMBL3525934 (Drug Metab Dispos, 2013)
# Amino acid sequences for entries named in this document (tags omitted).
# UniProt P10635, whole entry: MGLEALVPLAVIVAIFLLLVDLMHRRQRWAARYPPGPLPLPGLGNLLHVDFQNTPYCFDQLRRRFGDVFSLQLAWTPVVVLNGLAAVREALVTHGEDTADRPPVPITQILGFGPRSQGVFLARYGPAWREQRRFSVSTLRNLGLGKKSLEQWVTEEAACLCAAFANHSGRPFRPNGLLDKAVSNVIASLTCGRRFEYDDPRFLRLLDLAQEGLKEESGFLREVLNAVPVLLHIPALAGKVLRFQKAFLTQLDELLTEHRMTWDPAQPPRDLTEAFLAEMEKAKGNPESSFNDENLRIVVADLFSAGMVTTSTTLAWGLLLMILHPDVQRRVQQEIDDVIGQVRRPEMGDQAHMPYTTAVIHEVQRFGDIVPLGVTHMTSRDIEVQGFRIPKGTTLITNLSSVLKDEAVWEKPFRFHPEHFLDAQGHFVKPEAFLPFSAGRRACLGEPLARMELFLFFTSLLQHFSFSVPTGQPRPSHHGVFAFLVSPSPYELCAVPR
# Assays:
# Cytochrome P450 2D6 [1] = target: T1, Cytochrome P450 2D6 (Homo sapiens, UniProt P10635); assay: Drug metabolism in supersomes expressing human recombinant CYP2D6 assessed as enzyme-mediated total GSH conjugate formation at 100 uM after 30 mins measured per nmol of P450 by HPLC analysis in presence of GSH and hGST P1-1; type: ADME; conditions: 0.5 h
# Cytochrome P450 2D6 [2] = target: T1, Cytochrome P450 2D6; assay: Drug metabolism in supersomes expressing human recombinant CYP2D6 assessed as enzyme-mediated clozapine-N-oxide metabolite formation at 100 uM after 30 mins measured per nmol of P450 by HPLC analysis; type: ADME; conditions: 0.5 h
structure (smiles),measurement,setting,value
CN1CCN(C2=Nc3cc(Cl)ccc3Nc3ccccc32)CC1 [CLOZAPINE],Drug metabolism,Cytochrome P450 2D6 [1],1.6 nmol/min
same,Drug metabolism,Cytochrome P450 2D6 [2],1.62 nmol/min
